Where two headings read alike, the source gives them in different places.
Details: pH 7.4, 37° C.

With “TransCon PEG linker treprostinil [Compound 5]” the “released treprostinil [%]” value (incubation time 0.000 d) was 2%, the “released treprostinil [%]” value (incubation time 0.83 d) was 5% and the “released treprostinil [%]” value (incubation time 1.11 d) was 18%. The “released treprostinil [%]” value (incubation time 1.81 d) was 27%, the “released treprostinil [%]” value (incubation time 2.06 d) was 29% and the “released treprostinil [%]” value (incubation time 5.13 d) was 59%. For the same substance, the “released treprostinil [%]” value (incubation time 6.10 d) was 64%, the “released treprostinil [%]” value (incubation time 8.80 d) was 77% and the “released treprostinil [%]” value (incubation time 11.90 d) was 86%.
